Compounds with a hit are over-represented: about 2% of the library has one in this group of screens.
TDP-43 yeast inh: rescues yeast growth from TDP-43 toxicity; Potency, µM (series often up to 46.1 µM), for inactives: at the highest dose growth rescue (activation), hits mostly activators; TDP-43 expressing yeast growth rescue, BacTiter-Glo, 24 h; AID 652104; 410,000 compounds, 1.8% hits; note: % of control where 0% means no effect; nearly all actives have a fitted effect of over 50% in size
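Cell-based yeast growth screen: TDP-43 expression induced in galactose, inoculum OD600=0.02 after raffinose pregrowth to mid-log. Read-out BacTiter-Glo luminescence at 24 hr, 30 deg C; inhibition of toxicity seen as signal increase.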
Rango release inh: inhibition of RanGTP-driven Rango-importin beta dissociation; Potency, µM (series often up to 46.1 µM), inactives show top-dose activity change, negative = inhibition; 340,000 compounds, 0.071% hits; AID 540253; Biochemical FRET Rango-importin beta, RanGTP-induced dissociation; calls by dose curve; note: % of control where 0% means no effect; nearly all actives have a fitted effect of over 45% in size
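Quantitative HTS using a FRET biosensor: 0.1 uM Rango, 0.25 uM importin beta, 0.6 uM Ran, 2 mM GTP, 0.2 uM RCC1 final, PBS with DTT, Tween-20 and BSA. Post-read taken 45 min after Ran addition.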
Rango complex inh: inhibitors of Rango-importin beta complex formation; 340,000 compounds, 0.031% hits; Potency, µM (titrated, usually from 92.2 µM), inactives show at the top dose inhibition of complex formation; Rango CFP/YFP FRET sensor + importin beta, 45 min; Q14974; calls by dose curve;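 note: 0% = DMSO wells and 100% = buffer wells lacking importin beta; nearly all actives have a fitted effect of over 15% in size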
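FRET biosensor Rango (snurportin 1 IBB between N-terminal EYFP and C-terminal Cerulean), 50 nM in PBS/1 mM DTT/0.02% Tween-20/0.1% BSA, preincubated 5 min RT with compound; 0.125 microM importin beta added, 45 min RT, CFP/YFP FRET ratio read.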
ASM inhibitor: inhibitors of human secretory acid sphingomyelinase | placental ASM, HMU-PC fluorogenic substrate, 60 min | Potency, µM (titrated, usually from 57.5 µM), without a hit: at the top dose activity change, negative = inhibition, most hits filed as inhibitors | 340,000 compounds, 0.006% hits
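Human placenta-derived ASM preincubated with compound 10 min at room temperature, then reacted with 9 uM (final) fluorogenic HMU-PC substrate for 60 min at 37 C. Stop solution raises pH to 10; fluorescence read at Ex 386/Em 447 nm.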
aSyn rescue: rescues yeast growth from alpha-synuclein toxicity; Yeast expressing alpha-synuclein, growth rescue, BacTiter-Glo, 24 h; Potency, µM (series often up to 46.1 µM), without a hit: top-dose growth rescue (activation), hits mostly activators; 370,000 compounds, 0.14% hits; AID 652106; note: % of control where 0% means no effect; nearly all actives have a fitted effect of over 65% in size
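Screening used galactose-induced yeast with toxic alpha-synuclein levels, exposed to compound for 24 hr at 30 deg C. Cell growth, read with BacTiter-Glo luminescence, gave the measured signal.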
Abeta rescue: restores growth of yeast expressing A-beta42 peptide. 410,000 compounds, 0.063% hits. Potency, µM (highest dose often 46.1 µM), usual class: activators. yeast expressing A-beta42, growth rescue, OD600, 48 h; response scale: 0% DMSO, 100% iron-clioquinol control; note: nearly all actives have a fitted effect of over 55% in size
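Growth rescue measured by 600 nm absorbance after 48 h yeast culture at 30 C with compound. Values normalized between DMSO and an equimolar ferric chloride plus clioquinol control.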
Starred values were filed as active, the others as inactive. Unless noted, calls come from the whole dose curve; as a rule, active = well fitted curve in the direction sought with a large enough effect; inconclusive = small, poorly fitted or top-dose-only effect, or another doubt; inactive = no such curve, though single readings can be large; an effect the other way counts as inactive or inconclusive. Potency is the fitted concentration of half-maximal effect.

`Cc1cc(F)ccc1NC(=S)NC1CCCC1` gave TDP-43 yeast inh 14%, Rango release inh 0%, Rango complex inh 2%, ASM inhibitor 2%, aSyn rescue -7% and Abeta rescue inactive.
Screening Cc1cccc(C(C)C)c1NC(=O)C1CCCN1S(=O)(=O)c1cccc2nsnc12 (stereo not given) returned TDP-43 yeast inh 26% and Abeta rescue inactive.
`Nc1ccccc1/C=C/c1ccnc2ccccc12` gave aSyn rescue -14%.
For COc1cccc(NC(=O)CSc2nc3cc(OC)c(OC)cc3c3nc(-c4ccccc4)nn23)c1 the results were TDP-43 yeast inh 2% and Abeta rescue inactive.
For CCN(CC)S(=O)(=O)c1ccc(NC(=O)NCc2noc3ccc(C)cc23)cc1 the results were TDP-43 yeast inh -4% and Abeta rescue inactive.
For O=C1c2cc(S(=O)(=O)N3CCOCC3)ccc2-c2ccc(S(=O)(=O)N3CCOCC3)cc21 the results were aSyn rescue -8%.
Cc1ccc(C)c(NS(=O)(=O)c2cc3c(cc2C)n(C)c(=O)c(=O)n3C)c1 was read as TDP-43 yeast inh 14% and Abeta rescue inactive.
COc1ccc(S(=O)(=O)n2nc(-c3ccco3)nc2NCc2ccc(N(C)C)cc2)cc1 was read as TDP-43 yeast inh 9% and Abeta rescue inactive.
Screening O=C(NCc1ccc(F)cc1)c1cccc(S(=O)(=O)N2CCOCC2)c1 returned TDP-43 yeast inh 2%, Rango release inh -2%, Rango complex inh 65µM*, ASM inhibitor 4%, aSyn rescue 1% and Abeta rescue inactive.
COc1ccc(C(=S)N2CCOCC2)cc1OC(=O)c1ccc([N+](=O)[O-])cc1[N+](=O)[O-] was read as TDP-43 yeast inh 22µM*, Rango release inh -3%, Rango complex inh 0%, ASM inhibitor -1%, aSyn rescue 7% and Abeta rescue inactive.

Gathered by group, the entries above containing a halogen.
`Cc1cc(F)ccc1NC(=S)NC1CCCC1` gave TDP-43 yeast inh 14%, Rango release inh 0%, Rango complex inh 2%, ASM inhibitor 2%, aSyn rescue -7% and Abeta rescue inactive.
Screening O=C(NCc1ccc(F)cc1)c1cccc(S(=O)(=O)N2CCOCC2)c1 returned TDP-43 yeast inh 2%, Rango release inh -2%, Rango complex inh 65µM*, ASM inhibitor 4%, aSyn rescue 1% and Abeta rescue inactive.

(further entries)
Screening COc1cc(C(=S)N2CCOCC2)ccc1OC(=O)c1cc([N+](=O)[O-])cc([N+](=O)[O-])c1 returned TDP-43 yeast inh 8%, Rango release inh 1%, Rango complex inh 1%, ASM inhibitor 3%, aSyn rescue 0% and Abeta rescue inactive.
`CCCCC(=O)N1CCc2cc(OC)c(OC)cc2C1COc1ccc(C(=O)OCC)cc1` (stereo not given) gave TDP-43 yeast inh 22µM*, aSyn rescue 23% and Abeta rescue inactive.
For COc1cc2c(cc1OC)C(COc1ccc(F)cc1)N(C(=O)Cc1ccc(F)cc1)CC2 (stereo not given) the results were Abeta rescue inactive.
`CCCC(=O)N1CCc2cc(OC)c(OC)cc2C1COc1ccc(C(=O)OC)cc1` (stereo not given) gave TDP-43 yeast inh 27%, aSyn rescue -9% and Abeta rescue inactive.
For CCOC(=O)c1ccc(OCC2c3cc(OC)c(OC)cc3CCN2C(=O)Cc2ccc(F)cc2)cc1 (stereo not given) the results were TDP-43 yeast inh 20µM*, aSyn rescue 15% and Abeta rescue inactive.
For C(=C\c1ccnc2ccccc12)/c1ccc2c(c1)OCO2 the results were aSyn rescue -4%.
Screening Cc1nn(CC(=O)OCCOc2ccc(Br)cc2)c(C)c1[N+](=O)[O-] returned TDP-43 yeast inh 13µM*, Rango release inh 14%, Rango complex inh -4%, ASM inhibitor -5%, aSyn rescue 6% and Abeta rescue inactive.
`Cc1nc2ccc(C(=O)OC(C)C(=O)c3c(C)[nH]c4ccccc34)cc2nc1C` (stereo not given) gave aSyn rescue -8%.
